For assay [1], the target named is T1, Neuronal acetylcholine receptor subunit alpha-7 (Rattus norvegicus, UniProt Q05941). The experiment in a line: Displacement of [3H]epibatidine from rat alpha7 nAChR expressed in rat GH4C1 cells. Format: cell-based, GH4-C1. A general note: In a radioligand displacement assay an active substance lowers the binding of a labelled ligand.
For assay [2], the target named is T1, Neuronal acetylcholine receptor subunit alpha-7. Description: Agonist activity at rat alpha7 nAChR expressed in rat GH4C1 cells by whole cell patch-clamp electrophysiology. Format: functional, cell-based, GH4-C1. For orientation: In patch-clamp work, channel activity is measured electrically.

Chains of the proteins cited; added tags and fusions are not shown.
UniProt Q05941, whole entry: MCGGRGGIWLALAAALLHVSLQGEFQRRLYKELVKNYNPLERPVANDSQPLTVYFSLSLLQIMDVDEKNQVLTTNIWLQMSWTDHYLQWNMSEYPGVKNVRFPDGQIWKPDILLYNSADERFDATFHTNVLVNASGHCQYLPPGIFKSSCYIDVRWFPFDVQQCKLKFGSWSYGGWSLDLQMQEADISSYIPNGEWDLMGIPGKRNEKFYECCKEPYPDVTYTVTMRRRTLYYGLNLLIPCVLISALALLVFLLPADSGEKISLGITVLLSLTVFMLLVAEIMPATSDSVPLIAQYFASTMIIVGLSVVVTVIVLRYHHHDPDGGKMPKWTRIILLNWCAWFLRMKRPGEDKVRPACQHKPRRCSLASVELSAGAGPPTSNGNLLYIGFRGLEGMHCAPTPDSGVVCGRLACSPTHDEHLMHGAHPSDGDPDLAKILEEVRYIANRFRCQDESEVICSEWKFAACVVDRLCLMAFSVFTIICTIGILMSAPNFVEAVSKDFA

Usually Ki stands for a dissociation constant, usually derived from enzyme kinetics or from competition with a known ligand. Low values mean a stronger hold on the target, high ones a looser hold on the target. Broadly, the EC50 is the concentration at which the effect is half-maximal. Low readings indicate higher potency in that assay, high ones lower potency in that assay. On to `O=C(NCCCCN1CCCCC1)Nc1ccc(-c2ccc(F)cc2)nc1`, for which the affinity in assay [1] corresponds to a Ki of 44 nM. The compound further returned an EC50 in assay [2] of 490 nM.

The record behind these values is ChEMBL document CHEMBL1155527 (J Med Chem, 2010).
